## Cyclic peptide permeability, from CycPeptMPDB

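The data file gives no further conditions (lipid, pH, time, direction or concentration), and values from different papers need not be comparable. The list need not hold all peptides of the study. Peptides that the database sets to -10, its floor, are left out.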

PAMPA measures passive passage through an artificial lipid membrane. Caco-2 values are permeabilities across monolayers of Caco-2 human intestinal cells. Permeability is given as log10 of P in cm/s; higher (less negative) is more permeable. Cells with "n/a" have no entry in this list.

PAMPA (log10 cm/s),Caco-2 (log10 cm/s),SMILES
-6.36,n/a,CCCC[C@@H]1NC(=O)[C@H](CC(C)C)N(C)C(=O)CN(CCCN2CCCC2=O)C(=O)[C@H](Cc2ccc3ccccc3c2)NC(=O)CN(Cc2cc(CC(C)C)on2)C(=O)[C@H]2CCCN2C1=O
-6.02,n/a,CCCC[C@@H]1NC(=O)[C@H](CC(C)C)N(C)C(=O)CN(CCc2cccnc2)C(=O)[C@H](Cc2ccc3ccccc3c2)NC(=O)CN(CCN2CCOCC2)C(=O)[C@H]2CCCN2C1=O
-8.11,n/a,CCCC[C@@H]1NC(=O)[C@H](CC(C)C)N(C)C(=O)CN(Cc2ccccc2)C(=O)[C@H](Cc2ccccc2)NC(=O)CN(Cc2ccc(Cl)cc2)C(=O)[C@H]2CCCN2C1=O
-5.56,n/a,CCCC[C@@H]1NC(=O)[C@H](CC(C)C)N(C)C(=O)CN(CCCc2cnn(C)c2)C(=O)[C@H](C)NC(=O)CN(Cc2ccc(Cl)cc2)C(=O)[C@H]2CCCN2C1=O
-5.19,n/a,CCCC[C@@H]1NC(=O)[C@H](CC(C)C)N(C)C(=O)CN(CCOC)C(=O)[C@H](C)NC(=O)CN(CCCCc2ccccc2)C(=O)[C@H]2CCCN2C1=O
-5.16,n/a,CCCC[C@@H]1NC(=O)[C@H](CC(C)C)N(C)C(=O)CN(CCOC)C(=O)[C@H](CC(C)C)NC(=O)CN(CCC)C(=O)[C@H]2CCCN2C1=O
-8.53,n/a,CCCC[C@@H]1NC(=O)[C@H](CC(C)C)N(C)C(=O)CN(CC2CCCCC2)C(=O)[C@H](Cc2ccccc2)NC(=O)CN(CCCCc2ccccc2)C(=O)[C@H]2CCCN2C1=O
-5.38,n/a,CCCC[C@@H]1NC(=O)[C@H](CC(C)C)N(C)C(=O)CN(CCOC)C(=O)[C@H](Cc2ccccc2)NC(=O)CN(Cc2cc(CC(C)C)on2)C(=O)[C@H]2CCCN2C1=O
-7.78,n/a,CCCC[C@@H]1NC(=O)[C@H](CC(C)C)N(C)C(=O)CN(Cc2ccccc2)C(=O)[C@H](Cc2ccc3ccccc3c2)NC(=O)CN(CC(C)C)C(=O)[C@H]2CCCN2C1=O
-5.32,n/a,CCCC[C@@H]1NC(=O)[C@H](CC(C)C)N(C)C(=O)CN(CC2CCCCC2)C(=O)[C@H](Cc2ccccc2)NC(=O)CN(CCN2CCOCC2)C(=O)[C@H]2CCCN2C1=O
-5.52,-6.15,CCCC[C@@H]1NC(=O)[C@H](CC(C)C)N(C)C(=O)CN(CCOC)C(=O)[C@H](C)NC(=O)CN(Cc2cc(CC(C)C)on2)C(=O)[C@H]2CCCN2C1=O
-7.76,n/a,CCCC[C@@H]1NC(=O)[C@H](CC(C)C)N(C)C(=O)CN(CCOc2ccccc2)C(=O)[C@H](Cc2ccccc2)NC(=O)CN(Cc2ccc3c(c2)OCO3)C(=O)[C@H]2CCCN2C1=O
-5.71,n/a,CCCC[C@@H]1NC(=O)[C@H](CC(C)C)N(C)C(=O)CN(CCCN2CCCC2=O)C(=O)[C@H](CC(C)C)NC(=O)CN(Cc2cc(CC(C)C)on2)C(=O)[C@H]2CCCN2C1=O

Values of Furukawa et al. 2016, doi:10.1021/acs.jmedchem.6b01246, as listed in CycPeptMPDB.